Assay results from paper PMC12459314, “Subcutaneous administration of a novel TRPM8 antagonist reverses cold hypersensitivity while attenuating the drop in core body temperature” (British journal of pharmacology, 2024).

Chains of the proteins cited; added tags and fusions are not shown.
UniProt P35372, whole entry: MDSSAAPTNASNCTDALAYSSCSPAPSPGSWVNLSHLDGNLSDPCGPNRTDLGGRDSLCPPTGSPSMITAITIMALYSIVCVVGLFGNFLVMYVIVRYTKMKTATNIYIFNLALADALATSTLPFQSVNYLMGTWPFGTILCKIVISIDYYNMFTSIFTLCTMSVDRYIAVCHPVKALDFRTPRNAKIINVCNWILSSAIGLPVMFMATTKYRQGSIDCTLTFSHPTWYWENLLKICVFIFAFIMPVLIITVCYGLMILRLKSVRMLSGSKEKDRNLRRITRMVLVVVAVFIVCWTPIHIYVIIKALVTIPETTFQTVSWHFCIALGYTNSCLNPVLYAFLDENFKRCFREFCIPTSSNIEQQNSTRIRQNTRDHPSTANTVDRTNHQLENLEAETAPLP

Target: T1, μ opioid receptor (OPRM1) (Homo sapiens, UniProt P35372)
T1 construct: purchased Eurofins DiscoverX (SAFETYscan; gpcrSCAN; HitHunter cAMP XS+)
Assay: Eurofins DiscoverX opioid receptor assays (SAFETYscan; HitHunter cAMP), OPRM1
Type: cell-based
Conditions: Agonist format, control
Procedure: Assessment of the safety profile of VBJ103 across 78 assays using recombinant human targets was performed with the SAFETYscan E/IC50 ELECT service by Eurofins DiscoverX (San Diego, CA, USA). […] The assays were performed utilizing PathHunter enzyme fragment complementation (EFC) technology, FLIPR®-based cellular screening assays, KINOMEscan kinase binding assays and a variety of enzymatic assays. Further potential functional activity at opioid receptors was performed in the gpcrSCAN service by Eurofins DiscoverX. Hit Hunter® cAMP assays were carried out using Enzyme Fragment Complementation (EFC) with β-galactosidase (β-Gal) as the functional reporter.
Assessment of potential positive allosteric modulator (PAM) activity at μ, δ and κ opioid receptors was performed with the DiscoverX HitHunter cAMP XS+ assay by Eurofins DiscoverX (San Diego, CA, USA).

Compound: CSCC[C@H](NC(=O)[C@H](Cc1ccccc1)NC(=O)CNC(=O)CNC(=O)[C@@H](N)Cc1ccc(O)cc1)C(=O)O [[Met] Enkephalin, reference compound]
- Hill, cAMP: 1.8218
- Emax (OPRM1, read-out: Max Response, cAMP): 100%
